# Experimental data: PubChem BioAssay AID1224863 (Southern Research Institute, 2016)
# Sequences of proteins named here, by UniProt entry; tags and fusion partners are left off.
# UniProt P13569, whole entry, looked up: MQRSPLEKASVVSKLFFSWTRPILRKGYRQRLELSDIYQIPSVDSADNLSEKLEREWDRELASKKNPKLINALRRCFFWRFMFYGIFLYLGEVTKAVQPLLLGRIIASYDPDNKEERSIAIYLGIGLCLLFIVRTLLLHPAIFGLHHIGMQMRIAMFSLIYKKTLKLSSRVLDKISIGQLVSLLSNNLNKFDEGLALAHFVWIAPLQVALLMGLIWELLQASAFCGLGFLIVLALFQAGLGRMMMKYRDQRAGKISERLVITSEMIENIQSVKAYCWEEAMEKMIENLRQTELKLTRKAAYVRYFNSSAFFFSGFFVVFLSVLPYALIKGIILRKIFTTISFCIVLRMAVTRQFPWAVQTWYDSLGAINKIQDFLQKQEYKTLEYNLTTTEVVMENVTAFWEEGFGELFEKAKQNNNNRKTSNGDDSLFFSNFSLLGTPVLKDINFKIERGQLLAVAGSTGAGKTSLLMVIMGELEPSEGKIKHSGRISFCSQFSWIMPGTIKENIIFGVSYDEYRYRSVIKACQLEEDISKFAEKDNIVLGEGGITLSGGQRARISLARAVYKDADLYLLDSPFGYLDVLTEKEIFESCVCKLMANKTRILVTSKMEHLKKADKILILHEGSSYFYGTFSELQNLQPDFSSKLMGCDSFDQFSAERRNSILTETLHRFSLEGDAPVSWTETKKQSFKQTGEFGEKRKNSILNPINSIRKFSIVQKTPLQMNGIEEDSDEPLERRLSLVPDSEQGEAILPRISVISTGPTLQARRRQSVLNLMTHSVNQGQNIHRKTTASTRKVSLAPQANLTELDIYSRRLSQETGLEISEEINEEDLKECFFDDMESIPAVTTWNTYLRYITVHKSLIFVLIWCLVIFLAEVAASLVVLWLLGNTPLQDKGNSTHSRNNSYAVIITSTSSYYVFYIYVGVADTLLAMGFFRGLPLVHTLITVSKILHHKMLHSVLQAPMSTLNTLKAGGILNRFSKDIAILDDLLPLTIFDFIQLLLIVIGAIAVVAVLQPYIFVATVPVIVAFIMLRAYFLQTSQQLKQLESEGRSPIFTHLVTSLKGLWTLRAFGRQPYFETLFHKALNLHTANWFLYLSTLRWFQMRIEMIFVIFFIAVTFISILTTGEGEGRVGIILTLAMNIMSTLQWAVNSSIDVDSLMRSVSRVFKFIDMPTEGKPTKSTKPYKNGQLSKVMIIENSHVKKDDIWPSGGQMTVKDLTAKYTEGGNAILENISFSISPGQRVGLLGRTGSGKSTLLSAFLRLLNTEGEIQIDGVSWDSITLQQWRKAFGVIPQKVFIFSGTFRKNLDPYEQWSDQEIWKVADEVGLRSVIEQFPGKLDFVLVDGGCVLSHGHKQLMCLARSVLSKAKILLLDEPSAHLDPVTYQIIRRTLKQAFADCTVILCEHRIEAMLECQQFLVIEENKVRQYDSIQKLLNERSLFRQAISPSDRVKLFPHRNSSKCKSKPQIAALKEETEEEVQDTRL
# This is a selection; strong and weak results do not stand in their true shares. Calls of active or inactive are those of the source.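 How the source made its calls: active means highest signal at least 8 times that of the reference protease inhibitor control at some dose; inactive means the rest.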
# Target: Cystic fibrosis transmembrane conductance regulator (Homo sapiens) (UniProt P13569)
# Experiment: compounds raising F508del-CFTR protein level – cell-based, HeLa F508del-CFTR, immunofluorescence, viability, primary screen (AID 1224863)
# Details: immunofluorescence total CFTR, 24 h, library dosed in µM
row,SMILES,outcome
1,O=C(OC1CN2CCC1CC2)c1ccccc1 (centres undefined),inactive
2,O=C(O[C@H]1CN2CCC1CC2)C1NCc2ccccc2[C@@H]1c1ccccc1 (some centres undefined),inactive
3,O=P(O)(O)F,inactive
4,NC(=O)Nc1ccc([As](=O)(O)O)cc1,inactive
